{
  "sequences": {"note": "By UniProt entry, the sequences of proteins in these tests, tags left out. Residues count along the entry.", "UniProt P40763, 2-770 limits assumed": "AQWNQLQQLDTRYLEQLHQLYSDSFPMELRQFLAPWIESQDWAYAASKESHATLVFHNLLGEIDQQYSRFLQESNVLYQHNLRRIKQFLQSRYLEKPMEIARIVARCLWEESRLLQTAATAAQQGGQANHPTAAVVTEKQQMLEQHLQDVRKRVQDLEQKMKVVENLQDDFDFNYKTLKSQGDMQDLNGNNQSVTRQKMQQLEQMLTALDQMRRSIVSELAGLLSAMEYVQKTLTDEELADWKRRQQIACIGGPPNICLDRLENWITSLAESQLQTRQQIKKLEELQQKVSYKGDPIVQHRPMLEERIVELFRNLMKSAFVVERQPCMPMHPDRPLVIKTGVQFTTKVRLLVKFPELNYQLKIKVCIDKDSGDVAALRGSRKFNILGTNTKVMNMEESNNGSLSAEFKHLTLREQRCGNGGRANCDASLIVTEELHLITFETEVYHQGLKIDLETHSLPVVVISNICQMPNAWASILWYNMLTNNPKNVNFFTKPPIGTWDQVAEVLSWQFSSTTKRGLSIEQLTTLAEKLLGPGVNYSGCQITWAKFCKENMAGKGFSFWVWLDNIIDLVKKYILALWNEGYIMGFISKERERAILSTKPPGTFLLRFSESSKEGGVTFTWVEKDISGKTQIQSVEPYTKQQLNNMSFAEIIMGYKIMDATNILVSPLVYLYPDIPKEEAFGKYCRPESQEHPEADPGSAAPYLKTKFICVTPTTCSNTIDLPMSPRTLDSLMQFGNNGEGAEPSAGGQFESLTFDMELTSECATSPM"},
  "source": "patent US20150031714A1",
  "about": "“METHODS AND COMPOSITIONS FOR PREVENTION OF ALLERGIC REACTION” (Baylor College of Medicine, priority 2013, published 2015)",
  "target": "T1, Stat3-DNA (hSIE) complexes (Homo sapiens, UniProt P40763)",
  "T1 construct": "high salt extracts were prepared from HepG2 cells incubated without or with IL-6 (30 ng/ml) for 30 minutes; endogenous in cells; host or cells: HepG2 (IL-6-stimulated), whole-cell high-salt extract",
  "assay": "Electrophoretic mobility shift assay (EMSA), Stat3:hSIE DNA binding",
  "assay_type": "biochemical",
  "conditions": "300 μM, extracts of IL-6-stimulated HepG2 cells",
  "description": "Electrophoretic mobility shift assays were performed using whole-cell extracts prepared from HepG2 cells without and with stimulation with IL-6 (30 ng/ml) for 30 min. Protein (20 μg) was incubated with radiolabeled duplex oligonucleotide (hSIE) and DMSO without or with the indicated compounds (300 uM) for 60 minutes at 37° C. then separated by PAGE. The gel was dried and autoradiographed; the portion of the gel corresponding to the Stat3-bound hSIE band is shown. Data shown are representative of 2 studies.\nElectrophoretic Mobility Shift Assay (EMSA): EMSA was performed using the hSIE radiolabeled duplex oligonucleotide as a probe as described (Tweardy et al., 1995). Briefly, high salt extracts were prepared from HepG2 cells incubated without or with IL-6 (30 ng/ml) for 30 minutes. Protein concentration was determined by Bradford Assay and 20 ug of extract was incubated with compound (300 uM) for 60 minutes at 37 °C. […] Gels were dried and autoradiographed.\nOnce in the nucleus, Stat3 dimers bind to specific DNA elements to activate and, in some instances, repress gene transcription. […] Compounds that bind to the phosphopeptide-binding site of Stat3 might be expected to do the same. […]",
  "data": [
    {"compound": "COC(=O)Cc1c(C)c2ccc(OCc3ccc(C(=O)OC)cc3)c(C)c2oc1=O", "note": "[Cpd3-7, methyl 4-({[3-(2-methyoxy-2-oxoethyl)-4,8-dimethyl-2-oxo-2H-chromen-7-yl]oxy}methyl)benzoate]", "values": [
      {"measurement": "Stat3:hSIE band intensity (amount of hSIE shifted)", "result": "reduced the amount of hSIE shifted by half or greater"}
    ]}
  ]
}
